Experimental data as given in patent US5196094A, “Separation of 1,1,1-trichloroethane from the lower alcohols by extractive distillation” (priority 1991, dated 1993).
Counter-ions that a name gives are not always drawn.

Tests used:
Type in all cases: physicochemical
[1] = Vapor-liquid equilibrium still, separation of 1,1,1-trichloroethane from n-propanol
[2] = Vapor-liquid equilibrium still, separation of 1,1,1-trichloroethane from ethanol
[3] = Vapor-liquid equilibrium still, separation of 1,1,1-trichloroethane from 2-butanol
[4] = Vapor-liquid equilibrium still, separation of 1,1,1-trichloroethane from methanol
[5] = Vapor-liquid equilibrium still, separation of 1,1,1-trichloroethane from t-butanol
[6] = Vapor-liquid equilibrium still, separation of 1,1,1-trichloroethane from isopropanol

| Structure (SMILES) | Relative Volatility [1] | Relative Volatility [2] | Relative Volatility [3] | Relative Volatility [4] | further results |
| --- | --- | --- | --- | --- | --- |
| CN1CCCC1=O [1-Methyl-2-pyrrolidinone] | 3.0 |  |  |  |  |
| CCCCCO [1-Pentanol] |  | 3.0 |  |  |  |
| CCCCCCC(C)=O [2-Octanone] |  | 1.45 |  |  |  |
| CCCCC(=O)CC [3-Heptanone] |  |  | 1.6 | 1.5 |  |
| N#CCCCCC#N [Adiponitrile] | 2.2 | 2.0 | 2.7 | 1.9 | Relative Volatility [5]: 1.4 |
| COc1ccccc1 [Anisole] |  |  |  |  | Relative Volatility [6]: 1.55 |
| OCc1ccccc1 [Benzyl alcohol] |  |  |  | 3.0 |  |
| CCOC(=O)/C=C\C(=O)OCC [Diethyl maleate] |  |  | 1.9 |  |  |
| CC(C)CC(O)CC(C)C [Diisobutyl carbinol] | 1.9 |  |  |  |  |
| CN(C)C=O [Dimethylformamide] |  | 2.0 |  |  | Relative Volatility [5]: 1.9 |
| CCOCCOC(C)=O [Ethylene glycol ethyl ether acetate] |  |  | 1.9 |  |  |
| CCCCCCOCCO [Ethylene glycol hexyl ether] | 1.9 |  |  |  |  |
| CCCCCCOC(C)=O [Hexyl acetate] |  |  |  | 1.9 |  |
| CC(=O)OCC(C)C [Isobutyl acetate] |  | 1.3 |  |  |  |
| CCCC(=O)OCC(C)C [Isobutyl butyrate] | 1.3 | 1.25 | 1.5 | 4.0 | Relative Volatility [6]: 1.25 |
| CC(C)COC(=O)C(C)C [Isobutyl isobutyrate] |  |  |  | 1.9 |  |
| COC(=O)c1ccccc1 [Methyl benzoate] |  | 1.45 | 1.6 | 2.2 | Relative Volatility [6]: 1.4 |
| CC[N+](=O)[O-] [Nitroethane] | 1.9 |  | 2.0 |  |  |
| CC(C)COCC(C)O (centres unmarked) [Propylene glycol isobutyl ether] | 1.9 |  |  |  |  |
| O=S1(=O)CCCC1 [Sulfolane] | 3.0 |  |  | 2.9 |  |
